# Test results published in PMC12692169, “Identification of Novel TAT-I24-Related Peptides with Antiviral Activities” (International Journal of Molecular Sciences, 2025).
# Residues, ends and D or L forms follow the SMILES beside them.
# Tested on: plasmid-DNA (dsDNA)
# Experiment: Fluorescence-based dsDNA-binding assay (SYBR Gold, plasmid DNA)
# Settings: TAT-I24 as reference, three independent experiments in duplicates
structure (smiles),measurement,value
CC(C)C[C@H](NC(=O)[C@H](Cc1ccccc1)NC(=O)[C@H](CS)NC(=O)[C@H](Cc1ccccc1)NC(=O)[C@@H]1CCCN1C(=O)[C@H](CO)NC(=O)[C@H](CCC(N)=O)NC(=O)[C@@H]1CCCN1C(=O)[C@@H]1CCCN1C(=O)[C@H](CCCNC(=N)N)NC(=O)[C@H](CCCNC(=N)N)NC(=O)[C@H](CCCNC(=N)N)NC(=O)[C@H](CCC(N)=O)NC(=O)[C@H](CCCNC(=N)N)NC(=O)[C@H](CCCNC(=N)N)NC(=O)[C@H](CCCCN)NC(=O)[C@H](CCCCN)NC(=O)[C@H](CCCNC(=N)N)NC(=O)CN)C(=O)N[C@@H](C)C(=O)N[C@@H](Cc1ccccc1)C(=O)N[C@@H](CS)C(=O)N[C@@H](Cc1ccccc1)C(=O)O [TAT-T7] (H-GRKKRRQRRRPPQSPFCFLAFCF-OH; N-terminus and C-terminus assumed),dsDNA-binding (reduction in SYBR Gold fluorescence),reduced dsDNA-binding compared to TAT-I24
